{"sequences": {"note": "Amino acid sequences for entries named in this document (tags omitted). A change or cut given only in a name is not applied to a line headed by its entry.", "UniProt Q9H3R0": "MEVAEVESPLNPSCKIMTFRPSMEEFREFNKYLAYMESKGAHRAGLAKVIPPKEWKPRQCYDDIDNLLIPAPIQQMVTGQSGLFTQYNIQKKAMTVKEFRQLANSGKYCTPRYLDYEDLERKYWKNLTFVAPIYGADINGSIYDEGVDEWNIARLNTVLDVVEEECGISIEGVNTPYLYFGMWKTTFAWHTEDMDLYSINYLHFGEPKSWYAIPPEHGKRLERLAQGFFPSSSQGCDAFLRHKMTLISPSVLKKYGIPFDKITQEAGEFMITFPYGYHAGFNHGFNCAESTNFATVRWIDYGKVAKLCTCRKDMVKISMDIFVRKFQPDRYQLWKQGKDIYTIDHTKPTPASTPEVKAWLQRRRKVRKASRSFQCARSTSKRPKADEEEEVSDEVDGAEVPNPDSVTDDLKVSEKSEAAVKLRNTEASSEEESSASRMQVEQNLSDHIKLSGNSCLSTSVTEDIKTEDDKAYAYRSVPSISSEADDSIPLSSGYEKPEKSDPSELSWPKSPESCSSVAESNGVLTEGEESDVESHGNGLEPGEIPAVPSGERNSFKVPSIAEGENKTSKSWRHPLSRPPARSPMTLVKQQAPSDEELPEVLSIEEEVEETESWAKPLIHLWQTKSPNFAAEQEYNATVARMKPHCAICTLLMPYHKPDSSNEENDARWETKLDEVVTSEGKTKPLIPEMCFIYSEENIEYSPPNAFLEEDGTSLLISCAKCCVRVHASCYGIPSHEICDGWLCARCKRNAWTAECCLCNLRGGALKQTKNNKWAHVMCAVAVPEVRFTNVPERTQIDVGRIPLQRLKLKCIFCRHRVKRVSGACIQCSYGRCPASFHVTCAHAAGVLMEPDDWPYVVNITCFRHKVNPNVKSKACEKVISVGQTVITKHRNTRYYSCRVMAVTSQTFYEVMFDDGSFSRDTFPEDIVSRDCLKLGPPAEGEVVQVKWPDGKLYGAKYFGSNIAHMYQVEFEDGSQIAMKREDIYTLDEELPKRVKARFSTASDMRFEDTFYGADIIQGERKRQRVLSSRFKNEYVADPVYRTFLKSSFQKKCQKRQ"}, "source": "PubChem BioAssay AID2099", "about": "(Broad Institute, 2009)", "note": "The entries are a selection whose mix differs from that of the whole data set. Activity calls are given as the source filed them.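 Rule for the calls: active = more than half of a compound's replicate wells show inhibition beyond 50%, single wells judged on their own value; inconclusive = some, but no more than half, of replicates pass 50% inhibition; inactive = no replicate passes 50% inhibition.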", "data": [{"target": "Lysine-specific demethylase 4C (Homo sapiens) (UniProt Q9H3R0)", "test": "inhibitors of GASC-1 histone demethylase, primary screen, biochemical, fluorescence, DELFIA europium (AID 2099);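 note: signal counts dimethyl H3K9 product captured on neutravidin plate; 0% = median of DMSO wells and 100% = 0.3 times that DMSO median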", "details": "GST-JMJD2C(1-420) H3K9me3 demethylation, at 2.35 µM, hits give high values", "values": [{"smiles": "CC(C)c1ccc(OP(=O)(Nc2ccccn2)Oc2ccccc2F)cc1", "note": "(stereo not drawn)", "inhibition": "inactive: 1.53%"}, {"smiles": "CC(C)NC(=O)NP(=O)(Oc1ccccc1)Oc1ccccc1", "inhibition": "inactive: -15.8%"}, {"smiles": "CCN(CC)C(=S)SC(NC=O)C(Cl)(Cl)Cl", "note": "(stereo not drawn)", "inhibition": "inactive: -9.19%"}, {"smiles": "O=[N+]([O-])c1cc([N+](=O)[O-])c(-c2ccn[nH]2)s1", "inhibition": "inactive: 0.614%"}, {"smiles": "Cc1c2c(nc3ccccc13)SC(C(Cl)Cl)C2", "note": "(stereo not drawn)", "inhibition": "inactive: 0.498%"}, {"smiles": "O=C(OC1CN2CCC1CC2)C12CC3CC(CC(C3)C1)C2", "note": "(stereo not drawn)", "inhibition": "inactive: -8.2%"}, {"smiles": "Cc1cc(=O)[nH]c(N[N+](=O)[O-])n1", "inhibition": "inactive: -7.05%"}, {"smiles": "COc1ccc2nc(NP(=O)(c3ccccc3)c3ccccc3)sc2c1", "inhibition": "inactive: -9.04%"}, {"smiles": "COc1cc(I)ccc1[As](=O)(O)O", "inhibition": "inactive: 2.55%"}, {"smiles": "COc1ccc(N/C(=N/P(=O)(N2CCOCC2)N2CCOCC2)N2CCOCC2)cc1", "inhibition": "inactive: -0.831%"}, {"smiles": "CN(C(=O)Cc1ccc(Cl)c(Cl)c1)[C@H]1CCCC[C@H]1N1CCCC1", "inhibition": "inactive: -0.212%"}, {"smiles": "Cc1ccc(N/C(=N/P(=O)(N2CCOCC2)N2CCOCC2)N2CCOCC2)cc1", "inhibition": "inactive: -0.0545%"}, {"smiles": "NC(=O)c1cc([N+](=O)[O-])cc([N+](=O)[O-])c1N", "inhibition": "inactive: -0.725%"}, {"smiles": "CN1CCCC(OC(=O)C(c2ccccc2)c2ccccc2)C1", "note": "(stereo not drawn)", "inhibition": "inactive: -29.1%"}, {"smiles": "Clc1ccc(Cl)c(NC2=NCC(CBr)S2)c1", "note": "(stereo not drawn)", "inhibition": "inactive: -139%"}, {"smiles": "COc1ccccc1OP(=O)(Nc1ccc(C)cn1)Oc1ccccc1OC", "inhibition": "inactive: 1.26%"}, {"smiles": "Cc1ccc(OP(=O)(Nc2nccs2)Oc2ccc(C)cc2)cc1", "inhibition": "inactive: -4.55%"}, {"smiles": "Oc1ccccc1CNc1ccccn1", "inhibition": "inactive: -0.53%"}, {"smiles": "O=C(NC(Sc1ccncn1)C(Cl)(Cl)Cl)c1ccccc1", "note": "(stereo not drawn)", "inhibition": "inactive: 3.13%"}, {"smiles": "Cc1c2non([O-])c-2c(C)[n+](=O)[n+]1[O-]", "inhibition": "inactive: -3.59%"}, {"smiles": "Nc1cc(N)c2nonc2c1[N+](=O)[O-]", "inhibition": "inactive: 28.4%"}, {"smiles": "CC(C)CC(=O)NC(Sc1ccc(Cl)cc1)C(Cl)(Cl)Cl", "note": "(stereo not drawn)", "inhibition": "inactive: -4.56%"}, {"smiles": "O=P(Nc1nc2ccc(Cl)cc2s1)(c1ccccc1)c1ccccc1", "inhibition": "inactive: 1.37%"}, {"smiles": "CC(=O)Nc1ccc([As](=O)(O)O)cc1", "inhibition": "inactive: -2.51%"}, {"smiles": "O=C(O)c1ccccc1[As](=O)(O)O", "inhibition": "inactive: 7.17%"}, {"smiles": "Cc1cc(SC(NC(=O)c2ccc(F)cc2)C(Cl)(Cl)Cl)ncn1", "note": "(stereo not drawn)", "inhibition": "inactive: 4.09%"}, {"smiles": "CCOP(=O)(Nc1ccccc1)OCC", "inhibition": "inactive: -6.22%"}, {"smiles": "CN(C(=O)Cc1ccc(Cl)c(Cl)c1)[C@H]1CCCC[C@@H]1N1CCCC1", "inhibition": "inactive: 6.77%"}, {"smiles": "Cc1ccc(NP(=O)(Oc2ccccc2F)Oc2ccccc2F)nc1", "inhibition": "inactive: -10.6%"}, {"smiles": "O=[N+]([O-])c1cc([N+](=O)[O-])c(CCN2CCOCC2)c([N+](=O)[O-])c1", "inhibition": "inactive: 7.52%"}, {"smiles": "Nc1cccc2ccc([As](=O)(O)O)cc12", "inhibition": "inactive: -4.41%"}, {"smiles": "CCN(N=Nc1nonc1N)c1nonc1N", "inhibition": "inactive: 6.26%"}, {"smiles": "O=C(Nc1cc([As](=O)(O)O)ccc1O)c1ccccc1", "inhibition": "inactive: -12.9%"}, {"smiles": "O=[N+]([O-])c1ncn(CCn2ncnc2[N+](=O)[O-])n1", "inhibition": "inactive: 7.8%"}, {"smiles": "CC(C)(C)C(=O)NC(Sc1ccncn1)C(Cl)(Cl)Cl", "note": "(stereo not drawn)", "inhibition": "inactive: -5%"}, {"smiles": "O=C(O)CNc1ccc([As](=O)(O)O)cc1", "inhibition": "inactive: -0.809%"}, {"smiles": "O=[N+]([O-])c1cccc(NC2=NCC(CBr)S2)c1", "note": "(stereo not drawn)", "inhibition": "inactive: -3.96%"}, {"smiles": "COc1ccc(C2=NCC(CBr)S2)cc1", "note": "(stereo not drawn)", "inhibition": "inactive: -29.2%"}, {"smiles": "Cc1ccc(NP(=O)(Oc2ccccc2)Oc2ccccc2)nc1", "inhibition": "inactive: 15.7%"}, {"smiles": "O=[N+]([O-])c1cc([N+](=O)[O-])c(CCNc2ccccc2)c([N+](=O)[O-])c1", "inhibition": "inactive: -6.06%"}, {"smiles": "CCc1nc2c(n1)c1c(non1O)c1c2no[n+]1[O-]", "inhibition": "inactive: -2.42%"}, {"smiles": "CC(=O)N1C2C3N(C(C)=O)C1C1N(C(C)=O)C(C(N1C(C)=O)N3C(C)=O)N2C(C)=O", "inhibition": "inactive: -8.47%"}, {"smiles": "O=[N+]([O-])c1cccc2n[nH]nc12", "inhibition": "inactive: -8.24%"}, {"smiles": "CCN(/C(=N/P(=O)(N1CCOCC1)N1CCOCC1)N1CCOCC1)c1ccc(OC)cc1", "inhibition": "inactive: -10.3%"}, {"smiles": "Nc1ccc([As](=O)(O)c2ccc(N)cc2)cc1", "inhibition": "inactive: -2.95%"}, {"smiles": "C[N+]1=C2C=CC=CC=C2SC12C([N+](=O)[O-])=CC([N+](=O)[O-])=C[C-]2[N+](=O)[O-]", "note": "(stereo not drawn)", "inhibition": "inactive: -12.3%"}, {"smiles": "CC1CCN(C(=O)Oc2c(Cl)cc(Cl)c3cccnc23)CC1", "inhibition": "inactive: 24.3%"}, {"smiles": "CC(C)=N/N=C(\\N)N[N+](=O)[O-]", "inhibition": "inactive: 0.379%"}, {"smiles": "CN(C)C(=O)OCCc1n(C)cc[n+]1C", "inhibition": "inactive: 3.94%"}, {"smiles": "O=P(Nc1nccs1)(c1ccccc1)c1ccccc1", "inhibition": "inactive: 8.27%"}, {"smiles": "CC(C)C(=O)NC(Sc1ccccc1)C(Cl)(Cl)Cl", "note": "(stereo not drawn)", "inhibition": "inactive: 5.31%"}, {"smiles": "c1nnnn1CCn1cnnn1", "inhibition": "inactive: 2.77%"}, {"smiles": "CN(C)C1(CNC(=O)c2ccc(Cl)c(S(N)(=O)=O)c2)CCCCC1", "inhibition": "inactive: 6.41%"}, {"smiles": "O=P(Nc1ccccn1)(c1ccc(Br)cc1)c1ccc(Br)cc1", "inhibition": "inactive: 12.2%"}, {"smiles": "O=P(Nc1nc2ccccc2s1)(c1ccccc1)c1ccccc1", "inhibition": "inactive: 3.28%"}, {"smiles": "C[C@H]1OP(=O)(Oc2ccccc2)[C@H](O)[C@H](O)[C@H]1N=[N+]=[N-]", "note": "(stereo partly drawn)", "inhibition": "inactive: 39%"}, {"smiles": "O=[As](O)(c1ccccc1)c1ccc(O)cc1", "inhibition": "inactive: 17.5%"}, {"smiles": "CC(=O)NC(SC(=S)N(C)C)C(Cl)(Cl)Cl", "note": "(stereo not drawn)", "inhibition": "inactive: -2.99%"}, {"smiles": "O=[N+]([O-])c1ccc(O)c(/C=N/Nc2ccc([N+](=O)[O-])cc2[N+](=O)[O-])c1", "inhibition": "inactive: 1.04%"}, {"smiles": "O=C(OC1CN2CCC1CC2)c1cccc(Cl)c1", "note": "(stereo not drawn)", "inhibition": "inactive: -0.346%"}, {"smiles": "C(Cc1nn[nH]n1)Cc1nn[nH]n1", "inhibition": "inactive: 6.72%"}, {"smiles": "Nc1ccc([As](=O)(O)c2ccc([N+](=O)[O-])cc2)cc1", "inhibition": "inactive: 2.38%"}, {"smiles": "c1ccc(-c2nn[nH]n2)c(-c2nn[nH]n2)c1", "inhibition": "inactive: -1.72%"}, {"smiles": "Cc1ccc(NP(=O)(Oc2cccc(C)c2)Oc2cccc(C)c2)nc1", "inhibition": "inactive: -6.8%"}, {"smiles": "CCOC(=O)NC(Sc1ccccc1)C(Cl)(Cl)Cl", "note": "(stereo not drawn)", "inhibition": "inactive: 5.1%"}, {"smiles": "O=C(NC1CCS(=O)(=O)C1)NP(=S)(Oc1ccccc1)Oc1ccccc1", "note": "(stereo not drawn)", "inhibition": "inactive: -23.8%"}, {"smiles": "CCNC(=S)/N=C(\\N)N[N+](=O)[O-]", "inhibition": "inactive: -7.21%"}, {"smiles": "O=C(OC1CN2CCC1CC2)c1ccccc1", "note": "(stereo not drawn)", "inhibition": "inactive: 66.4%"}, {"smiles": "CCC(=O)N1C2C3N(C(=O)CC)C1C1N(C(=O)CC)C(C(N1C(=O)CC)N3C(=O)CC)N2C(=O)CC", "inhibition": "inactive: 1.31%"}, {"smiles": "COC(=O)c1cc2c(s1)N=C(c1ccccc1)N(C)P2(=O)N1CCOCC1", "note": "(stereo not drawn)", "inhibition": "inactive: 19.8%"}, {"smiles": "CC(=O)NC(SC(=S)N(CC(C)C)CC(C)C)C(Cl)(Cl)Cl", "note": "(stereo not drawn)", "inhibition": "inactive: 5.38%"}, {"smiles": "Cc1ccc(OP(=O)(Nc2ccccn2)Oc2ccc(C)cc2)cc1", "inhibition": "inactive: -10.2%"}, {"smiles": "CC(NC(=O)COC(=O)C(O)(c1ccccc1)c1ccccc1)c1ccccc1", "note": "(stereo not drawn)", "inhibition": "inactive: 8.64%"}, {"smiles": "Cc1ccccc1OP(=O)(Nc1ccccn1)Oc1ccccc1C", "inhibition": "inactive: 0.205%"}, {"smiles": "CN(C)C(=O)Oc1noc2ccccc12", "inhibition": "inactive: -5.61%"}, {"smiles": "O=P1(Nc2nc3ccc(Cl)cc3s2)COc2ccccc2O1", "note": "(stereo not drawn)", "inhibition": "inactive: 1.53%"}, {"smiles": "CCOc1ccc(C2=NCC(CBr)S2)cc1", "note": "(stereo not drawn)", "inhibition": "inactive: 9.95%"}, {"smiles": "CC(C)(C)C(=O)NC(Sc1ccccc1)C(Cl)(Cl)Cl", "note": "(stereo not drawn)", "inhibition": "inactive: 0.872%"}, {"smiles": "C[C@H]1OP(=O)(Oc2ccccc2)C[C@@H]2O[C@@H]21", "note": "(stereo partly drawn)", "inhibition": "inactive: 26.2%"}, {"smiles": "C[C@@H]1C=CCP(=O)(Oc2ccccc2)O1", "note": "(stereo partly drawn)", "inhibition": "inactive: -2.76%"}, {"smiles": "CC(=O)c1ccc(N2CC2c2ccncc2)cc1", "note": "(stereo not drawn)", "inhibition": "inactive: -5.6%"}, {"smiles": "CC(=O)Nc1ccc([As](=O)(O)O)c(O)c1", "inhibition": "inactive: 27.5%"}, {"smiles": "CC(=O)Nc1ccc(Oc2c([N+](=O)[O-])cc([N+](=O)[O-])cc2[N+](=O)[O-])cc1", "inhibition": "inactive: -0.937%"}]}]}
